# Assay results taken from ChEMBL document CHEMBL5579818, “Identification of 3-(9H-carbazol-9-yl)-2-(1,3-dioxoisoindolin-2-yl)propanoic acids as promising DNMT1 inhibitors” (Eur J Med Chem, 2024).
# Amino acid sequences for entries named in this document (tags omitted). A change or cut given only in a name is not applied to a line headed by its entry.
# UniProt P26358: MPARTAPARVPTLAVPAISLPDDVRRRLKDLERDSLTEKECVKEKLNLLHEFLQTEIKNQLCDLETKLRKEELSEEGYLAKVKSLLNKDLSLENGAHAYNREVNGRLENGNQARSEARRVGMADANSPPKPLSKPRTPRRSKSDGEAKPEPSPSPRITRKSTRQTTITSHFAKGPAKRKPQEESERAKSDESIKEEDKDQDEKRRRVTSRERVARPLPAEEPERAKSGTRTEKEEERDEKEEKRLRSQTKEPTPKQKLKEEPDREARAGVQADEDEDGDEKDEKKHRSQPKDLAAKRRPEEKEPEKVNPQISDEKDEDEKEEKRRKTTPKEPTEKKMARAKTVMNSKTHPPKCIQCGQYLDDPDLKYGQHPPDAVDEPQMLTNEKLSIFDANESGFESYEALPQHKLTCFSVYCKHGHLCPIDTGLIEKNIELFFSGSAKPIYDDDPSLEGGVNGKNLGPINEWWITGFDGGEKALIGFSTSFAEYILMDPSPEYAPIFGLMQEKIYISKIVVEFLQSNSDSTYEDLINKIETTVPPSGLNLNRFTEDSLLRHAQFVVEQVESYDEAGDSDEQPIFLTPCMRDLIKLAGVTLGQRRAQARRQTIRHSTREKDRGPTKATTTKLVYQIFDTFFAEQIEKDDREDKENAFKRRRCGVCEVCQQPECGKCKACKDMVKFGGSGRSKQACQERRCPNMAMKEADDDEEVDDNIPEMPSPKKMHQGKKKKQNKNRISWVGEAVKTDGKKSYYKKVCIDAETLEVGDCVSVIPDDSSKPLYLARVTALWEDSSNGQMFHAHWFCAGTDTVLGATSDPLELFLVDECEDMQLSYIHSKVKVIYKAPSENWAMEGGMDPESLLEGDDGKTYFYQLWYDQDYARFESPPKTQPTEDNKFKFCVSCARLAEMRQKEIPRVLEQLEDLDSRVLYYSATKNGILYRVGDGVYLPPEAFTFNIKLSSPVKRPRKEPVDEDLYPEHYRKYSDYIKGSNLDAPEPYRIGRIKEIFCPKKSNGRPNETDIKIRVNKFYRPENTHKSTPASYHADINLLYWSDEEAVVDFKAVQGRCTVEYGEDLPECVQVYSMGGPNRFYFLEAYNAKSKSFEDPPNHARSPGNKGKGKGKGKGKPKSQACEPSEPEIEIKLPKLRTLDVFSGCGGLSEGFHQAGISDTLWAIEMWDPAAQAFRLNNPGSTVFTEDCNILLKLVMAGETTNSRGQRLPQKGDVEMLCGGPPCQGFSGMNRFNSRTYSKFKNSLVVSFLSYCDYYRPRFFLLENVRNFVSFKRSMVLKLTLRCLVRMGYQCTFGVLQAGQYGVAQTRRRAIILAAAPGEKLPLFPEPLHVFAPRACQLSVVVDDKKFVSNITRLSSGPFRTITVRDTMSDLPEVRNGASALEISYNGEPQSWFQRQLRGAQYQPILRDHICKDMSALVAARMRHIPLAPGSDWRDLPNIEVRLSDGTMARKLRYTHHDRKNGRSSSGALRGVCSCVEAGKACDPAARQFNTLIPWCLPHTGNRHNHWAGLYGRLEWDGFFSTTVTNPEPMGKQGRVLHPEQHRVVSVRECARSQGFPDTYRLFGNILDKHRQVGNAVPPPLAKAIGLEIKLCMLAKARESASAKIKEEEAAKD
# Target: DNA (cytosine-5)-methyltransferase 1 (Homo sapiens, UniProt P26358)
# Test: Binding affinity to human DNMT1 expressed in Escherichia coli assessed as binding constant by SPR analysis
row,SMILES,Ka
1,O=C(O)[C@H](Cn1c2ccc(Cl)cc2c2cc(Cl)cc(Cl)c21)N1C(=O)c2ccccc2C1=O,194000 M⁻¹ s⁻¹
2,O=C(O)[C@@H](Cn1c2ccc(Cl)cc2c2cc(Cl)cc(Cl)c21)N1C(=O)c2ccccc2C1=O,218000 M⁻¹ s⁻¹
3,CC(C)(C)c1ccc2c(c1)c1cc(C(C)(C)C)ccc1n2C[C@H](C(=O)O)N1C(=O)c2ccccc2C1=O,73700 M⁻¹ s⁻¹
4,CC(C)(C)c1ccc2c(c1)c1cc(C(C)(C)C)ccc1n2CC(C(=O)O)N1C(=O)c2ccccc2C1=O (racemic),65600 M⁻¹ s⁻¹
5,CC(C)(C)c1ccc2c(c1)c1cc(C(C)(C)C)ccc1n2C[C@@H](C(=O)O)N1C(=O)c2ccccc2C1=O,81800 M⁻¹ s⁻¹
6,O=C(O)C(Cn1c2ccc(Cl)cc2c2cc(Cl)cc(Cl)c21)N1C(=O)c2ccccc2C1=O (racemic),219000 M⁻¹ s⁻¹
